{
  "source": "patent US20250356984A1",
  "about": "(priority 2022, published 2025)",
  "origin": "cited, not measured here",
  "conditions": "point at which drug concentration in the blood is 50% after discontinuation of infusion",
  "note": "Only a part of the results on these compounds is given; other tests are left out.",
  "data": [
    {"compound": "CCC(=O)N(c1ccccc1)C1(C(=O)OC)CCN(CCC(=O)OC)CC1", "values": [
      {"measurement": "context-sensitive half-life time", "result": 3, "unit": "min"}
    ]}
  ]
}
